In US7964104B2, “Active antiseptic water or active water-based fluid, and production method and apparatus for the same” (Japan Techno Co., Ltd., priority 2003, dated 2011):

Test system: goldfish
Settings: level of nitrite and sulfite ions in the water

## nitrite and sulfite ions
  Level at which a danger is posed to goldfish and the like: greater than 0.5 mg/L
  Level at which goldfish die: 0.8 µg/mL
